Only a part is listed here, and it is no random draw. The source made the active and inactive calls.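 Rule for the calls: active = inhibition above the mean inhibition of all tested compounds plus 3 SD, set per campaign (cut at about 40% in these data); inactive = the rest.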

The chains behind the UniProt entries cited, without tags or fusion partners.
UniProt Q07820, whole entry, looked up: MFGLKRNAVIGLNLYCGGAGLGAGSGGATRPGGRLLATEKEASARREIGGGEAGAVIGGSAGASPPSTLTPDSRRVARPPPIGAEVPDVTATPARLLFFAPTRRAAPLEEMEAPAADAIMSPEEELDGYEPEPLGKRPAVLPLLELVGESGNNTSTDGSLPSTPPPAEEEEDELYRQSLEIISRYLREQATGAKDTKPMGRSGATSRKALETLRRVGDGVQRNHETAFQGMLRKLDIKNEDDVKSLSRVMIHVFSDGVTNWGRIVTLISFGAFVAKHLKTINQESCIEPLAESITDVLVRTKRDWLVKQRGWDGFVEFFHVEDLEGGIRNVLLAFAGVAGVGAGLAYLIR

Our source for the inhibition values is PubChem BioAssay AID2057 (The Scripps Research Institute Molecular Screening Center, 2009).

This assay addresses Induced myeloid leukemia cell differentiation protein Mcl-1 (Homo sapiens) (UniProt Q07820). In words: inhibitors of MCL1 binding to BIM-BH3, primary screen, biochemical, fluorescence polarization (AID 2057).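 Note: 0% = DMSO wells and 100% = unlabeled Bim-BH3 peptide control; higher means more loss of mP so more displacement of Bim peptide.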 To be noted: GST-MCL1 / FITC-Bim-BH3 fluorescence polarization; at 10.9 µM; active compounds read high.
Take `COc1ccccc1OP(=O)(Nc1ccc(C)cn1)Oc1ccccc1OC`: the inhibition is inactive: 0.77%. For `Cc1ccc(OP(=O)(Nc2nccs2)Oc2ccc(C)cc2)cc1` the value was inactive: -2.69%; for `Clc1ccc(Cl)c(NC2=NCC(CBr)S2)c1` (centres undefined), inactive: 0.59%; for `CN1CCCC(OC(=O)C(c2ccccc2)c2ccccc2)C1` (centres undefined), inactive: 3.99%. As to `NC(=O)c1cc([N+](=O)[O-])cc([N+](=O)[O-])c1N`, the inhibition was inactive: -11.9%. Regarding `CN(C(=O)Cc1ccc(Cl)c(Cl)c1)[C@H]1CCCC[C@H]1N1CCCC1`, the inhibition was inactive: 4.75%.

Turning to `Cc1ccc(N/C(=N/P(=O)(N2CCOCC2)N2CCOCC2)N2CCOCC2)cc1`, the inhibition was inactive: 5.99%. Take `CC(C)CC(=O)NC(Sc1ccc(Cl)cc1)C(Cl)(Cl)Cl` (centres undefined): the inhibition was inactive: 3.05%. For `Nc1cc(N)c2nonc2c1[N+](=O)[O-]`, the inhibition was inactive: -1.35%.

With `Oc1ccccc1CNc1ccccn1`, the inhibition is inactive: -0.53%. For the molecule `Cc1c2non([O-])c-2c(C)[n+](=O)[n+]1[O-]`, the inhibition was inactive: -0.35%. In the case of `O=C(NC(Sc1ccncn1)C(Cl)(Cl)Cl)c1ccccc1` (centres undefined), the inhibition is inactive: 10.4%. For `CCOP(=O)(Nc1ccccc1)OCC` the value was inactive: 3.77%; for `Cc1cc(SC(NC(=O)c2ccc(F)cc2)C(Cl)(Cl)Cl)ncn1` (centres undefined), inactive: -2.19%. Turning to `Cc1ccc(NP(=O)(Oc2ccccc2F)Oc2ccccc2F)nc1`, the inhibition is inactive: 0.32%. For the molecule `CN(C(=O)Cc1ccc(Cl)c(Cl)c1)[C@H]1CCCC[C@@H]1N1CCCC1`, the inhibition was active: 50.5%.

`O=C(O)c1ccccc1[As](=O)(O)O`: the inhibition was inactive: 1.23%. Turning to `CC(=O)Nc1ccc([As](=O)(O)O)cc1`, the inhibition was inactive: 4.96%.

In the case of `O=P(Nc1nc2ccc(Cl)cc2s1)(c1ccccc1)c1ccccc1`, the inhibition was inactive: 4.8%. Consider `CCN(N=Nc1nonc1N)c1nonc1N`, for which the inhibition was inactive: -2.93%. Consider `O=[N+]([O-])c1cc([N+](=O)[O-])c(CCN2CCOCC2)c([N+](=O)[O-])c1`, for which the inhibition was inactive: 24.5%.

Take `O=C(Nc1cc([As](=O)(O)O)ccc1O)c1ccccc1`: the inhibition was inactive: -5.31%.

Take `O=[N+]([O-])c1cccc(NC2=NCC(CBr)S2)c1` (centres undefined): the inhibition is inactive: 1.49%.

As to `O=[N+]([O-])c1ncn(CCn2ncnc2[N+](=O)[O-])n1`, the inhibition was inactive: -12.3%.

As for `O=[N+]([O-])c1cccc2n[nH]nc12`, the inhibition was inactive: -1.68%. In the case of `CC(=O)N1C2C3N(C(C)=O)C1C1N(C(C)=O)C(C(N1C(C)=O)N3C(C)=O)N2C(C)=O` it was inactive: -1.45%.

Turning to `Cc1ccc(NP(=O)(Oc2ccccc2)Oc2ccccc2)nc1`, the inhibition is inactive: -10.3%. In the case of `CCc1nc2c(n1)c1c(non1O)c1c2no[n+]1[O-]`, the inhibition was inactive: 1.91%. For the molecule `O=[N+]([O-])c1cc([N+](=O)[O-])c(CCNc2ccccc2)c([N+](=O)[O-])c1`, the inhibition is inactive: -3.75%. In the case of `COc1ccc(C2=NCC(CBr)S2)cc1` (centres undefined) it was inactive: 0.35%; in that of `CC(C)=N/N=C(\N)N[N+](=O)[O-]`, inactive: 6.04%; in that of `CN(C)C(=O)OCCc1n(C)cc[n+]1C`, inactive: -2.59%. For `CC1CCN(C(=O)Oc2c(Cl)cc(Cl)c3cccnc23)CC1`, the inhibition was inactive: -4.05%. Regarding `Nc1ccc([As](=O)(O)c2ccc(N)cc2)cc1`, the inhibition is inactive: -5.86%. For `C[N+]1=C2C=CC=CC=C2SC12C([N+](=O)[O-])=CC([N+](=O)[O-])=C[C-]2[N+](=O)[O-]` (centres undefined), the inhibition was active: 66.5%. For the molecule `CCN(/C(=N/P(=O)(N1CCOCC1)N1CCOCC1)N1CCOCC1)c1ccc(OC)cc1`, the inhibition was inactive: 11.8%. For `c1nnnn1CCn1cnnn1` the value was inactive: -4.65%. In the case of `CC(C)C(=O)NC(Sc1ccccc1)C(Cl)(Cl)Cl` (centres undefined) it was inactive: 7.04%; in that of `O=P(Nc1nccs1)(c1ccccc1)c1ccccc1`, inactive: 1.73%. For the molecule `O=P(Nc1nc2ccccc2s1)(c1ccccc1)c1ccccc1`, the inhibition is inactive: 8.13%. Consider `C[C@H]1OP(=O)(Oc2ccccc2)[C@H](O)[C@H](O)[C@H]1N=[N+]=[N-]` (some centres undefined), for which the inhibition is inactive: 1.25%.

As for `O=P(Nc1ccccn1)(c1ccc(Br)cc1)c1ccc(Br)cc1`, the inhibition is inactive: -0.72%. For the molecule `CN(C)C1(CNC(=O)c2ccc(Cl)c(S(N)(=O)=O)c2)CCCCC1`, the inhibition is inactive: -7.03%. On to `Nc1ccc([As](=O)(O)c2ccc([N+](=O)[O-])cc2)cc1`, for which the inhibition is inactive: 5.72%. As to `C(Cc1nn[nH]n1)Cc1nn[nH]n1`, the inhibition is inactive: 12.9%. In the case of `O=C(OC1CN2CCC1CC2)c1cccc(Cl)c1` (centres undefined) it was inactive: -4.9%; in that of `O=[N+]([O-])c1ccc(O)c(/C=N/Nc2ccc([N+](=O)[O-])cc2[N+](=O)[O-])c1`, inactive: 4.26%; in that of `O=[N+]([O-])c1ncn(CCn2cnc([N+](=O)[O-])n2)n1`, inactive: -1.11%.

Consider `CC(=O)NC(SC(=S)N(C)C)C(Cl)(Cl)Cl` (centres undefined), for which the inhibition is inactive: 4.92%. For `O=[As](O)(c1ccccc1)c1ccc(O)cc1`, the inhibition is inactive: 3.38%. As for `CCNC(=S)/N=C(\N)N[N+](=O)[O-]`, the inhibition is inactive: 3.21%. For `O=C(NC1CCS(=O)(=O)C1)NP(=S)(Oc1ccccc1)Oc1ccccc1` (centres undefined) the value was inactive: -1.19%; for `c1ccc(-c2nn[nH]n2)c(-c2nn[nH]n2)c1`, inactive: 6.35%; for `CCOC(=O)NC(Sc1ccccc1)C(Cl)(Cl)Cl` (centres undefined), inactive: 12.5%. As for `Cc1ccc(NP(=O)(Oc2cccc(C)c2)Oc2cccc(C)c2)nc1`, the inhibition was inactive: 0.59%.

Take `Cc1ccccc1OP(=O)(Nc1ccccn1)Oc1ccccc1C`: the inhibition is inactive: 1.48%.

As for `CN(C)C(=O)Oc1noc2ccccc12`, the inhibition is inactive: 9.1%.

For the molecule `COC(=O)c1cc2c(s1)N=C(c1ccccc1)N(C)P2(=O)N1CCOCC1` (centres undefined), the inhibition was inactive: 2.87%. With `Cc1ccc(OP(=O)(Nc2ccccn2)Oc2ccc(C)cc2)cc1`, the inhibition is inactive: 1.49%. On to `CC(=O)NC(SC(=S)N(CC(C)C)CC(C)C)C(Cl)(Cl)Cl` (centres undefined), for which the inhibition was inactive: -2.63%. With `O=C(OC1CN2CCC1CC2)c1ccccc1` (centres undefined), the inhibition is inactive: -7.89%. In the case of `CCC(=O)N1C2C3N(C(=O)CC)C1C1N(C(=O)CC)C(C(N1C(=O)CC)N3C(=O)CC)N2C(=O)CC`, the inhibition is inactive: -0.1%. For the molecule `CC(C)(C)C(=O)NC(Sc1ccccc1)C(Cl)(Cl)Cl` (centres undefined), the inhibition was inactive: -3.3%. Consider `O=P1(Nc2nc3ccc(Cl)cc3s2)COc2ccccc2O1` (centres undefined), for which the inhibition was inactive: 6.11%. For the molecule `CCOc1ccc(C2=NCC(CBr)S2)cc1` (centres undefined), the inhibition was inactive: -2.87%. With `CC(=O)Nc1ccc([As](=O)(O)O)c(O)c1`, the inhibition is inactive: -5.33%. Consider `CC(=O)Nc1ccc(Oc2c([N+](=O)[O-])cc([N+](=O)[O-])cc2[N+](=O)[O-])cc1`, for which the inhibition was inactive: -0.17%. In the case of `CC(=O)c1ccc(N2CC2c2ccncc2)cc1` (centres undefined) it was inactive: 0.96%. Regarding `Cc1ccccc1CN(C)C(=O)COC(=O)C(O)(c1ccccc1)c1ccccc1`, the inhibition was inactive: -2.54%. In the case of `C[C@@H]1C=CCP(=O)(Oc2ccccc2)O1` (some centres undefined) it was inactive: 2.22%; in that of `C[C@H]1OP(=O)(Oc2ccccc2)C[C@@H]2O[C@@H]21` (some centres undefined), inactive: -5.86%; in that of `O=[As](O)(c1cccc(O)c1)c1cccc(O)c1`, inactive: 3.73%.

As for `Cc1cccc(OCC(=O)OC2CN3CCC2CC3)c1` (centres undefined), the inhibition was inactive: 7.82%.

In the case of `COc1cc(C(=O)NCC2(N3CCOCC3)CCCCC2)cc(Cl)c1OC(C)C`, the inhibition was inactive: 3.3%.

For the molecule `O=[As](O)(O)c1cccnc1`, the inhibition was inactive: 6.71%.

`CS(=O)(=O)c1ccc(Cl)c(NC(=O)COC(=O)C(O)(c2ccccc2)c2ccccc2)c1`: the inhibition was inactive: -6.78%. In the case of `O=C(OC1CN2CCC1CC2)c1ccc(Cl)cc1` (centres undefined), the inhibition is active: 88.7%. On to `COc1cc(C2NCCC3(OCCO3)C2(C)C)cc(OC)c1OC` (centres undefined), for which the inhibition was inactive: -1.57%. On to `CCOP(=O)(Nc1cccc2ccccc12)OCC`, for which the inhibition is inactive: 0.83%.

As for `CCCOP(=S)(Nc1nc(N)cc(=O)[nH]1)OCCC`, the inhibition is inactive: 0.3%. As to `Cc1ccc(NCCc2c([N+](=O)[O-])cc([N+](=O)[O-])cc2[N+](=O)[O-])cc1`, the inhibition was inactive: 9.99%. Take `Nc1ccccc1[As](=O)(O)c1ccccc1`: the inhibition is inactive: 13.6%. For `O=C(O)COc1ccc([As](=O)(O)O)cc1[N+](=O)[O-]` the value was inactive: 7.46%; for `CS(=O)(=O)c1cc([N+](=O)[O-])c2no[n+]([O-])c2c1`, active: 68.5%.

Turning to `CCOP1(=S)c2c(C)nn(CCC#N)c2N=C(c2ccccc2F)N1C` (centres undefined), the inhibition was inactive: -0.26%.

Turning to `O=P(Nc1nccs1)(c1ccccc1)c1nc2ccccc2s1` (centres undefined), the inhibition was inactive: -37.4%. Regarding `O=P(Nc1nccs1)(Oc1ccccc1)Oc1ccccc1`, the inhibition is inactive: 0.95%. Regarding `CN(C)C(=O)c1cc([N+](=O)[O-])cc2c1-c1c(cc([N+](=O)[O-])cc1[N+](=O)[O-])C2=O`, the inhibition was inactive: -1.52%. For `O=[N+]([O-])c1ccc2c(c1)nnn2O` the value was inactive: 3.35%; for `CN(C(=O)Cc1ccc(Cl)c(Cl)c1)[C@H]1CC[C@@]2(CCCO2)C[C@@H]1N1CCCC1`, inactive: 4.92%. In the case of `N#CCCN(C(=O)COC(=O)C(O)(c1ccccc1)c1ccccc1)c1ccc(F)cc1`, the inhibition was inactive: 8%. With `CCOP1(=S)c2c(C)nn(CCC#N)c2N=C(c2ccc(F)cc2)N1C` (centres undefined), the inhibition is inactive: 5.98%. In the case of `CN(C(=O)Cc1ccccc1)[C@@H]1CC[C@]2(CCCO2)C[C@H]1N1CCCC1` it was inactive: 5.41%; in that of `NC(=O)Nc1ccc([As](=O)(O)O)cc1`, inactive: 12.9%. In the case of `O=C(/C=C/c1ccccc1)OC1CN2CCC1CC2` (centres undefined), the inhibition is inactive: -8.79%. Regarding `CN(C)C1(CNC(=O)c2ccc(S(C)(=O)=O)cc2)CCCCC1`, the inhibition was inactive: 8.52%. For `Cc1nn(-c2ccccc2)c2c1P(=O)(N1CCOCC1)N(C)C(c1ccccc1)=N2` (centres undefined) the value was inactive: 4.62%; for `CC1CCC(C(C)C)C(OP(=O)(Nc2ccccn2)c2ccccc2)C1` (centres undefined), inactive: 5.03%. For `Cc1ccc(C(=O)OC2CN3CCC2CC3)cc1` (centres undefined), the inhibition is inactive: -2.53%.
